We go through one substance from patent US11000505B2 (priority 2010, dated 2021).

In the experiment the test system is pial artery. As to conditions: pig, in vivo.

With “calcitonin-gene related polypeptide (ACDTATCVTHRLAGLLSRSGGVVKNNFVPTNVGSKAF; Calcitonin gene-related peptide 1; UniProt P06881 83-119, looked up) [reference compound]”, the “dilation response in presence of glibenclamide” value is reported as “blocked the dilation”.
